Only some compounds are listed: those with a hit (about 3.7% of all), similar ones and a draw of the others.
miR-21 reporter = raises the signal of a miR-21 reporter. Potency, µM (highest dose often 38.3 µM), without a hit: top-dose reporter change, positive = more light. 340,000 tested, under 10 active. HeLa miR-21 FLuc reporter, luciferase, 48 h; active = well fitted rising curve with a large enough effect; inconclusive = small, poorly fitted or top-dose-only effect; inactive = no such curve, though single readings can be large or run the other way;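 further: % of control where 0% means no effect; miR-21 action dims this reporter so a rising signal means less miR-21 action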
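HeLa cells stably expressing CMV-driven firefly luciferase with a downstream miR-21 binding sequence, endogenously expressing miR-21, were treated with titrations (up to about 40uM final) for 48 hours at 37 degree Celsius. Luciferase luminescence was read after lysis.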
ClpP mod = qHTS Assay for Activators of ClpP | 1.9% of 340,000 active | AID 651965, 2013 | Potency, µM (highest dose often 57.5 µM), for the others: at the highest dose activity change, negative = active | purified B. subtilis ClpP, FRET peptide cleavage, 20 min | ATP-dependent Clp protease proteolytic subunit (Bacillus subtilis (strain 168)), P80244; active = well fitted falling curve with a large enough effect; inconclusive = small, poorly fitted or top-dose-only effect; inactive = no such curve, though single readings can be large or run the other way; note: potency is the fitted concentration of half-maximal effect; the source files actives as falling curves though it sought activators and does not explain the sign; nearly all actives have a fitted effect of over 65% in size
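FRET quenching reversal measured ClpP activation: 10 microg/mL B. subtilis ClpP at pH 8 with the FRET-FV decapeptide, read at 430 nm after 320 nm excitation. The 20-min minus 0-min signal was scaled between DMSO/no-enzyme wells and ADEP (5.8 microM final).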
Nrf2 block = inhibitors of Nrf2 signaling. A549 ARE-Fluc reporter, luciferase luminescence, 18-24 h. Potency, µM (highest dose often 46 µM), inactives show top-dose activity change, negative = inhibition, actives largely listed as inhibitors. 2.1% of 360,000 active; note: potency is the fitted concentration of half-maximal effect; % is set by controls: 0 for no effect and ±100 for the full control effect; nearly all actives have a fitted effect of over 60% in size
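A549 ARE_Fluc cells (5000/well, 5% FBS OPTI-MEM) pre-incubated 2 h, then treated with compounds 18-24 h at 37C/5% CO2 in concentration-response. CellTiter-Fluor viability read first; BugLite luciferase luminescence after 15 min at room temperature gives Nrf2 activity.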
TCR activator = activators of T cell receptors; Potency, µM (titrated, usually from 9.22 µM), for inactives: at the top dose activation of IL-2 secretion, usual class: activators; 330,000 tested, under 10 active; primary human leukocytes, anti-CD3, IL-2 HTRF, 48 h; note: % of control where 0% means no effect
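Human primary leukocytes + a-CD3 beads + cpd, 48 hr; IL-2 in supernatant by HTRF (ex 320nm / em 665nm). No co-stimulatory signal supplied.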
Nrf2 activator = activators of Nrf2 (ARE) signaling | AREc32 ARE-luciferase reporter (MCF7-derived line), luminescence, 24 h | Potency, µM (titrated, usually from 46.1 µM), inactives show top-dose activation, usual class: activators | 0.31% of 410,000 active; note: potency is the fitted concentration of half-maximal effect; % of control where 0% means no effect; nearly all actives have a fitted effect of over 65% in size
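Nrf2 activation is followed as ARE-luciferase induction in the AREc32 line after one day of compound treatment; luminescence is read with Steady-Glo.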
A549 viability = A549 cytotoxicity, counter-screen for Nrf2 inhibitors | AID 504648 | 0.16% of 390,000 active | Potency, µM (doses to about 46 µM), inactives show at the highest dose activity change, negative = cytotoxicity, actives largely listed as inhibitors | A549 ARE-Fluc cells, CellTiter-Fluor viability, 18-24 h; note: potency is the fitted concentration of half-maximal effect; % is set by controls: 0 for no effect and ±100 for the full control effect
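Cytotoxicity counterscreen: CellTiter-Fluor fluorescence was measured in A549 ARE_Fluc cells after 18-24 h of compound exposure in a concentration series. The subsequent BugLite luminescent read reports ARE-luciferase activity.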
Starred values were filed as active, the others as inactive; ? = inconclusive; nt = no result; [ ] = dose if it differs, or a comment. Unless noted, calls come from the whole dose curve; as a rule, active = well fitted curve in the direction sought with a large enough effect; inconclusive = small, poorly fitted or top-dose-only effect, or another doubt; inactive = no such curve, though single readings can be large; an effect the other way counts as inactive or inconclusive.

[1] CN(C(=O)c1cccc(NC(=O)Cc2cccc([N+](=O)[O-])c2)c1)C1CCCC1
[2] CCCCc1c(C)c2ccc(OCC(C)=O)cc2oc1=O
[3] C=CCOC(=O)COc1ccc2c(C)c(C)c(=O)oc2c1
[4] CCCc1c(C)c2ccc(OCC(C)=O)cc2oc1=O
[5] CC(=O)COc1ccc2c(C)c(-c3ccccc3)c(=O)oc2c1
[6] Cc1c(C)n2c(SCC(=O)Nc3cccc4ccccc34)nnc2[nH]c1=O

screen / no. | 1 | 2 | 3 | 4 | 5 | 6
miR-21 reporter | nt | -34.8% | -0.7% | -47.2% | -24.7% | nt
ClpP mod | -2.6% | 3.98µM* | 12.6µM* | 3.16µM* | nt | nt
Nrf2 block | 10.3µM* | nt | -15.9% | ? | ? | -3.4%
TCR activator | 0.1% | 4.8% | 3.1% | 0.8% | 0.4% | -4.6%
Nrf2 activator | 6.4% | 4.5% | 0.3% | 3.0% | 3.2% | 0.3%
A549 viability | -2.4% | -0.4% | -0.7% | 13.4% | 0.8% | 7.5%

An excerpt from above, showing only Nrf2 activator:
no.	Structure	Nrf2 activator
4	CCCc1c(C)c2ccc(OCC(C)=O)cc2oc1=O	3.0%
2	CCCCc1c(C)c2ccc(OCC(C)=O)cc2oc1=O	4.5%
3	C=CCOC(=O)COc1ccc2c(C)c(C)c(=O)oc2c1	0.3%

Later entries:
[7] COc1ccc2occ(C(=O)c3cccs3)c2c1
[8] Cc1nc(-c2cccc(NC(=O)c3ccc(Br)o3)c2)cs1
[9] Cc1nc(-c2cccc(NC(=O)c3ccc(-n4nccc4C)cc3)c2)cs1
[10] Cc1nc(-c2cccc(NC(=O)Cc3ccccc3)c2)cs1
[11] Cc1nc(-c2ccc(C(=O)Nc3cccc(Br)c3)cc2)cs1
[12] CC1CN(C(=O)CCC(=O)NCc2cccs2)c2cc(Cl)ccc2O1 (stereo unspecified)

screen / no. | 7 | 8 | 9 | 10 | 11 | 12
miR-21 reporter | -56.7% | -20.7% | nt | -16.8% | 9.3% | -5.7%
ClpP mod | -2.3% | 1.0% | -1.2% | -16.9% | 179.1% | 0.5%
Nrf2 block | ? | 2.2% | 16.4µM* | ? | 11.6µM* | ?
TCR activator | -3.0% | -9.7% | 3.3% | -0.2% | -1.7% | nt
Nrf2 activator | 10µM* | 2.6% | -0.5% | 0.4% | -0.3% | 3.4%
A549 viability | -0.5% | 0.0% | -9.7% | 5.2% | ? | 2.6%

[13] CN1CCc2c(sc(/N=C/c3cccs3)c2C(N)=O)C1
[14] CSCCC1NC(=O)C(C(C)=NNC(N)=O)=C1O (stereo unspecified)
[15] CCOC(=O)C1=C(C)N(CCCC(=O)O)C(=O)NC1c1ccc2ccccc2c1 (stereo unspecified)
[16] Cc1ccccc1OCC(=O)Nc1nnc(SCc2cc(=O)n3cc(Cl)ccc3n2)s1
[17] O=C(CN1C(=O)NC2(CCCC2)C1=O)NCCc1ccc(Cl)cc1Cl
[18] CN(Cc1ccc(Cl)cc1Cl)C(=O)CN1C(=O)NC2(CCCC2)C1=O

screen / no. | 13 | 14 | 15 | 16 | 17 | 18
miR-21 reporter | -38.9% | nt | nt | -3.1% | nt | nt
ClpP mod | 10µM* | 1.8% | 0.2% | -5.4% | -0.5% | 25.1µM*
Nrf2 block | ? | -2.3% | -2.5% | nt | -0.7% | -8.0%
TCR activator | -1.4% | -2.1% | 7.6% | nt | 6.4% | 5.5%
Nrf2 activator | 8.0% | 0.0% | -0.2% | -0.2% | -0.3% | 0.2%
A549 viability | -0.4% | 14.4% | 0.6% | 0.7% | 0.3% | -1.9%

[19] CN(C)CCCNc1ncnc2ccc(-c3ccc4c(c3)OCO4)cc12
[20] CC(C)CN(C(=O)COC(=O)C12CC3CC(CC(O)(C3)C1)C2)c1c(N)n(Cc2ccccc2)c(=O)[nH]c1=O
[21] CC(C)CN(C(=O)COC(=O)C12CC3CC(CC(C3)C1)C2)c1c(N)n(Cc2ccccc2)c(=O)[nH]c1=O
[22] CC(C)CN(C(=O)CCC(=O)OCC(=O)c1ccc(F)c(F)c1)c1c(N)n(CC(C)C)c(=O)[nH]c1=O
[23] CC(C)CN(C(=O)CCC(=O)OCC(=O)N(C)c1ccccc1)c1c(N)n(CC(C)C)c(=O)[nH]c1=O
[24] COc1ccccc1-c1cnc(C(O)c2ccc(F)c(F)c2)[nH]1 (stereo unspecified)

screen / no. | 19 | 20 | 21 | 22 | 23 | 24
miR-21 reporter | nt | nt | nt | -3.2% | nt | nt
ClpP mod | nt | -6.5% | nt | 0.9% | 28.2µM* | -1.4%
Nrf2 block | ? | nt | 25.9µM* | -4.4% | 10.1% | nt
TCR activator | nt | nt | 0.9% | -9.2% | 1.7% | nt
Nrf2 activator | nt | 2.6% | -0.4% | -0.5% | 0.3% | 4.8%
A549 viability | 10.5% | nt | ? | 0.6% | -4.2% | nt

[25] Cc1c(NC(=O)/C(C#N)=C/c2ccc(-c3ccc(Cl)cc3)o2)c(=O)n(-c2ccccc2)n1C
[26] Cc1c(NC(=O)/C(C#N)=C/c2ccc(-c3cc(Cl)ccc3Cl)o2)c(=O)n(-c2ccccc2)n1C
[27] Cc1ccc(-n2nc(C)c3c(C)cc(=O)n(CC(=O)Nc4cc(Cl)ccc4C)c32)cc1
[28] Cc1cc(NC(=O)CC2CCCC2)n(-c2nc3ccccc3[nH]2)n1
[29] CC(C)c1ccc(NC(=O)c2cn(C3CCCCC3)c(=O)c3c2c2ccccc2n3C)cc1
[30] Cn1c2ccccc2c2c(C(=O)N3CCN(c4ccccn4)CC3)cn(C3CCCC3)c(=O)c21

screen / no. | 25 | 26 | 27 | 28 | 29 | 30
miR-21 reporter | -1.6% | -5.9% | 2.2% | 9.7% | -1.1% | 13.3%
ClpP mod | 1.2% | 5.5% | -3.6% | 19.1% | 25.1µM* | 31.6µM*
Nrf2 block | ? | ? | 17.4% | 25.9µM* | 5.5% | ?
TCR activator | -10.7%[46.1 µM] | 1.2%[46.1 µM] | nt | 4.7% | nt | -0.2%
Nrf2 activator | 10.2% | 0.2% | 0.0% | 0.0% | 0.8% | -0.1%
A549 viability | 23.1µM* | ? | 2.0% | ? | -0.3% | -7.0%

[31] COc1ccc(N2CCN(C(=O)c3cn(C4CCCC4)c(=O)c4c3c3ccccc3n4C)CC2)cc1
[32] Cc1ccc(/C=C/c2onc(C)c2S(=O)(=O)N2CCC(C(=O)N3CC(C)Oc4ccccc43)CC2)cc1 (stereo unspecified)
[33] Cc1ccc(OCC(=O)N2CC(C)CC(C)C2)c([N+](=O)[O-])n1 (stereo unspecified)
[34] CCC(=O)N(Cc1cc(=O)[nH]c2ccccc12)c1ccc(OC)cc1
[35] CN1CCN(c2ccnc(N(C)CCCCCCN)n2)CC1
[36] CCN1CCN(c2ccc(S(=O)(=O)N3CCCCC3)cc2NC(=O)c2ccc([N+](=O)[O-])s2)CC1

screen / no. | 31 | 32 | 33 | 34 | 35 | 36
miR-21 reporter | 17.3% | -4.1% | nt | -5.2% | nt | nt
ClpP mod | 0.8% | ? | nt | nt | 4.6% | -1.8%
Nrf2 block | ? | nt | -3.7% | -11.6% | nt | ?
TCR activator | -0.8% | nt | 7.4%[46.1 µM] | 7.9% | nt | 7.6%
Nrf2 activator | 6.0% | -0.4% | -0.4% | 2.1% | nt | -0.1%
A549 viability | -24.5% | -0.1% | -7.2% | 0.4% | nt | ?

[37] CCn1cnc2c(Nc3cc(F)cc(F)c3)nc(C#N)nc21
[38] N#Cc1nc(Nc2cc(F)cc(F)c2)c2ncn(CCCN3CCCC3)c2n1
[39] Fc1ccc(-c2csc3[n+]2CCS3)cc1
[40] CCCCOc1ccc(C(=O)NCC(=O)NCc2ccncc2)cc1
[41] CCOC(=O)c1nnn(-c2nonc2-n2cccc2)c1-c1cccc([N+](=O)[O-])c1
[42] Cc1ccccc1CS(=O)(=O)c1snnc1C
[43] Cc1nnsc1S(=O)(=O)c1ccccc1
[44] CCN(CC)Cc1c(O)ccc2c(=O)c(Oc3ccccc3OC)c(C)oc12

screen / no. | 37 | 38 | 39 | 40 | 41 | 42 | 43 | 44
miR-21 reporter | nt | nt | -5.3% | nt | 0.3% | 3.9% | 0.2% | 0.7%
ClpP mod | nt | nt | 1.3% | 31.6µM* | 28.2µM* | -0.4% | nt | 3.8%
Nrf2 block | ? | 5.9% | 16.4µM* | 5.6% | -15.0% | ? | 8.2µM* | 0.8%
TCR activator | -4.6% | nt | -2.5%[46.1 µM] | 2.0% | nt | -1.1% | -4.4% | -2.2%
Nrf2 activator | 6.6% | nt | -0.5% | 3.1% | 5.6% | 10.2% | 1.4% | -0.5%
A549 viability | -16.9% | 2.06µM* | -21.7% | 8.9% | 0.2% | nt | -0.3% | 4.1%

Screens deposited in PubChem by National Center for Advancing Translational Sciences (NCATS).
